Reference: patent publication US12570642B2, “GLP-IR modulating compounds” (Gilead Sciences, Inc., priority 2021, dated 2026)

The chains behind the UniProt entries cited, without tags or fusion partners. Residues count along the entry.
UniProt P43220, 24-463 limits assumed: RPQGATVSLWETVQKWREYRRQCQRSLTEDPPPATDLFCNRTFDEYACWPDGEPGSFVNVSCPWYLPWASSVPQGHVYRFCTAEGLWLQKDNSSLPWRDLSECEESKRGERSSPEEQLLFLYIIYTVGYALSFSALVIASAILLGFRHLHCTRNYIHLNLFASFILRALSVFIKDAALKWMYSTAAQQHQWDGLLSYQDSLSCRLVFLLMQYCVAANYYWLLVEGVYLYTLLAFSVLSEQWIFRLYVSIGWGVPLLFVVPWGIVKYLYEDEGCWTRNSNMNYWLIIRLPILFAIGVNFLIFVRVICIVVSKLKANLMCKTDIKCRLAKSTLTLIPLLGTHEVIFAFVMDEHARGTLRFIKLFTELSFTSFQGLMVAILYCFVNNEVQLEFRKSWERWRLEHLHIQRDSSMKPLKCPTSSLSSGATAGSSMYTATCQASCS

Molecular target: GLP-1R (Homo sapiens, UniProt P43220)
Experiment: GLP-1R Activation - cAMP Assay
Conditions: read-out: GLP-1R Activation - Assay EC50; cAMP increase in CHO cells stably expressing GLP-1R; each compound run on one of the two cAMP assays (Assay 1 or Assay 2, not specified)
Protocol: GLP-1R Activation—cAMP Assay 1
GLP-1R activation by compounds of the present disclosure were quantified by measuring cAMP increase in CHO cells stably expressing GLP-1R (MultiSpan product #C1267-1a). The cells were harvested and plated in growth medium (DMEM/F-12 (Corning product #10-090-CV) supplemented with 10% FBS (HyClone product #SH30071-03), penicillin/streptomycin (Corning product #30-002CI) and 10 μg/ml puromycin (Gibco product #A11138-03)) at 1,000 cells/well in a 384-well plate (Greiner product #781080). The cells were then incubated overnight at 37° C., 5% CO2. The next day, the medium was removed and the cells were washed with DPBS (Corning product #21-031-CM) before adding the assay medium (HBSS, Corning product #21-023-CV) with 20 mM Hepes (Gibco product #15630-080) and 0.1% BSA (Rockland Immunochemicals product #BSA-1000)). Following the medium change, the cells were incubated for 1 hour at 37° C., 5% CO2. The tested GLP-1 compound was added to the cells in a 10-point dose response followed by a 30 minutes incubation at 37° C., 5% CO2. cAMP concentration increase was then detected using Cisbio's cAMP Gs Dynamic Kit (product #62AM4PEC) according to the manufacturer's protocol. The response was plotted against the log of the agonist concentration and fitted to a sigmoidal equation to determine the EC50.

Cc1cc(Cc2nc3ccc(C(=O)O)cc3n2[C@@H]2COCC2(C)C)c(F)cc1-c1nc(OCc2ccc(C#N)cc2F)ccc1F
EC50: 0.068 nM
